The structures appear in SMILES notation.

Chains of the proteins cited; added tags and fusions are not shown.
UniProt P97266, whole entry, looked up: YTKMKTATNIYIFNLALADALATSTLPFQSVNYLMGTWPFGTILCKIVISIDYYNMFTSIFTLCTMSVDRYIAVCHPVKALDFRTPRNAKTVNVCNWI

For this experiment, the target named is Mu-type opioid receptor (Cavia porcellus, UniProt P97266). Briefly: Displacement of [3H]DAMGO from MOR in Hartley guinea pig membrane.

In general, Ki refers to the equilibrium dissociation constant of an inhibitor or competing ligand from its target. Low readings indicate higher affinity, high ones lower affinity. `CO[C@@]12CC[C@@]3(C[C@@H]1[C@](C)(O)C(C)(C)C)[C@H]1Cc4ccc(O)c5c4[C@@]3(CCN1CC1CC1)[C@H]2O5` showed a Ki of 0.4 nM.

Source of the values: ChEMBL document CHEMBL2331145, “Orvinols with mixed kappa/mu opioid receptor agonist activity” (2013).
